# Results published in US20250249020A1, “COLLOIDALLY STABLE HEME-ALBUMIN COMPLEXES AND METHODS OF MAKING AND USING THEREOF” (Ohio State Innovation Foundation, priority 2022, published 2025).
# How the values were obtained:
# Format in all cases: physicochemical
# [1] = Hydrodynamic diameter by dynamic light scattering (DLS); settings: samples in deionized water
# Protocol: Hydrodynamic Diameter. The hydrodynamic diameter of protein samples was measured using a BI-200SM goniometer (Brookhaven Instruments Corp., Holtsville, NY) at an angle of 90° and wavelength of 637 nm. Protein samples were diluted to ˜0.5-1 mg/mL concentration in deionized water. The hydrodynamic diameter was obtained by using average values from the non-linear least squared (NNLS) algorithm in the instrument software.
# [2] = Secondary structure (α-helical content) by far UV circular dichroism; settings: CD peak at 222 nm
# Protocol: Secondary Structure. The far UV circular dichroism (CD) spectra of protein samples was measured using a JASCO J-815 CD (JASCO, Easton, MD) spectrometer. Samples were diluted to 10 μM (protein basis) in deionized water and the absorbance was measured from 200 to 260 nm. For each measurement, spectra were obtained by averaging 3 repeated scans. Baseline subtraction was performed, and the absorbance was normalized using the protein concentration. The molar ellipticity was reported in units of deg cm^2 dmol^−1. The α-helix peak at 222 nm was used to determine the change in α-helical content of samples.
# [3] = Storage and freeze-thaw stability analysis by SEC-HPLC; settings: for change in quaternary structure / SEC-HPLC elution profile: storage at 4° C. for 72 hours; for larger species (~8.4 mins): post one freeze-thaw cycle
# [4] = Heme incorporation quantification (heme pellet centrifugation, UV-visible); settings: for heme molecules bound to each HSA molecule: pH 7.4
# Protocol: Heme Incorporation Quantification. […] All final products were centrifuged at 20,000×g for 3 mins to precipitate unbound heme. The supernatant was removed, and the heme pellet was solubilized in 1 mL of 0.1 M NaOH. The concentration of unbound heme (i.e. from NaOH solubilized heme pellet) in each sample was determined using the absorbance at the 398 nm peak, and using an extinction coefficient of 12 x10^4 M^−1 cm^−1. The difference in the mass of free heme solubilized in NaOH before reaction (total heme), and after centrifugation to form the heme pellet (unbound heme) was used to determine the amount of bound heme in the heme-HSA sample.
# [5] = post a single freeze-thaw cycle (−80° C.), directly and after 72 hours of storage at 4° C.
Substance,hydrodynamic diameter [1],reduction in α-helical content ([2]; after a pH change to 8.6),change in quaternary structure ([3]; pH shift from 7.4 to 8.6 and rebalancing to 7.4),"change in quaternary structure [3, 5]",change in quaternary structure / SEC-HPLC elution profile [3],reduction of α-helical content compared to heme-HSA ([2]; after PEG-conjugation),"colloidal / storage stability (summary statement) ([3]; different pH environments, freeze-thaw cycles, storage at 4° C.)",heme molecules bound to each HSA molecule ([4]; 6:1 heme:HSA incubation reaction),heme molecules bound to each HSA molecule ([4]; 10:1 heme-HSA incubation reaction),heme molecules bound to each HSA molecule ([4]; 12:1 heme-HSA incubation reaction),"maximum heme molecules bound to each HSA molecule ([4]; heme:HSA molar ratios >6:1, without precipitation or degradation)",larger species (~8.4 mins) ([3]; 0 hours),larger species (~8.4 mins) ([3]; after 72 hours of storage at 4° C.),change in SEC-HPLC elution profile ([3]; storage at 4° C. for 24 hours),heme precipitation out of solution ([3]; storage in aqueous solution at 4° C. for over 1 week)
HSA: 25 wt % human serum albumin solution manufactured by Octapharma,3.8±0.4 nm,~60%,No change in the quaternary structure,HSA dimer formation,did not exhibit any changes in quaternary structure; also recorded: stable,,,,,,,,,,
PEG-HSA: HSA surface-conjugated with mPEG-maleimide (5000 Da) via thiol-maleimide chemistry,13.1±0.6 nm,,,,,,,,,,,,,,
PEG-heme-HSA: heme incorporated into HSA followed by PEG (5000 Da) surface conjugation,11.9±1.4 nm,,,no change in the quaternary structure,did not show any change in the SEC-HPLC elution profile; also recorded: no change in quaternary structure,~9%,stable; also recorded: more colloidally-stable than heme-HSA,,,,,,,,
"heme-HSA: heme non-covalently incorporated into human serum albumin, ~5 hemes bound per HSA molecule",5.1±2.2 nm and 5.1±1.2 nm,,,dimer formation,appearance of dimeric species,,,~5.8,5.3,4.9,5-6 and ~5,> 20%,~90%,no change in the SEC-HPLC elution profile; also recorded: dimer formation,no heme precipitated out of solution

# Where “and” joins values, the source holds several entries; their conditions need not be identical. Equal values may be shown once. Entries after “also recorded” stand apart in the source; their conditions may differ.
